# Results: US11376233B2, “Composition, containing sarpogrelate as active ingredient, for preventing or treating sensorineural hearing loss” (AJOU UNIVERSITY INDUSTRY-ACADEMIC COOPERATION FOUNDATION, priority 2017, dated 2022)
# Tested on: noise-induced hearing loss
# Assay: Auditory brainstem response (ABR) test in noise-induced hearing loss animal model
# Assay type: in vivo, Balb/c mice
# Details: 50 mg/kg intraperitoneally once a day for 7 days before 100 dB white noise for 50 minutes; tone bursts 8, 16, 32 kHz; 1 day, 7 days and 14 days after exposure
# Protocol: In order to exclude mice having congenitally abnormal hearing, a preliminary hearing test was performed on all mice before the experiment. A total of 24 7-week-old male Balb/c mice were subjected to an auditory brainstem response (ABR) test and were divided into an experimental group (12 mice) administered with sarpogrelate (50 mg/kg) before exposure to noise and a control group (12 mice) not administered with sarpogrelate. The sarpogrelate (50 mg/kg) was intraperitoneally administered once a day for 7 days, and the mice were exposed to 100 dB of white noise for 50 minutes after administration, to establish an animal model with noise-induced hearing loss (FIG. 1). 7 days after administration of sarpogrelate (50 mg/kg), an auditory brainstem response (ABR) test was performed to analyze auditory function. The minimum stimulus sound that forms a wave (V) when applying tone bursts of 8 kHz, 16 kHz and 32 kHz using a Tucker-Davis Technologies (TDT) ABR instrument is determined to be a hearing threshold, the hearing of the experimental group administered with sarpogrelate and the control group not administered with sarpogrelate was measured, and the effect of sarpogrelate on prevention of noise-induced hearing loss was comparatively analyzed.
smiles,measurement,value
"COc1cccc(CCc2ccccc2OCC(CN(C)C)OC(=O)CCC(=O)O)c1 (stereo not shown) [sarpogrelate, 4-[2-(dimethylamino)-1-({2-[2-(3-methoxyphenyl)ethyl]phenoxy}methyl)ethoxy]-4-oxobutanoic acid]",hearing threshold (ABR) compared to the control group,significantly reduced
